# The list is not random: actives were taken first. Their share in the collection is about 1.3%.
# Giardia killer: Giardia lamblia killing; AID 540267; activity change, % at 7.66 µM, hits read low; actives 0.15% (n = 340,000); Giardia lamblia trophozoite viability; in the data active = activity change below about -80%; inconclusive = between about -30% and that limit;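 note: parasites exposed to compound for two days anaerobically before the ATP read; % is set by controls: 0 for no effect and ±100 for the full control effect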
#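 Giardia lamblia trophozoites (100 cells/well) were incubated with compounds for 48 h at 37 deg C under anaerobic conditions. Viability was read as ATP content by one-step luminescence after 15-30 min at room temperature.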
# miR-21 reporter: raises the signal of a miR-21 reporter | HeLa miR-21 FLuc reporter, luciferase, 48 h | Potency, µM (doses to about 38.3 µM), without a hit: at the top dose reporter change, positive = more light | 340,000 tested, under 10 active | AID 2288; active = well fitted rising curve with a large enough effect; inconclusive = small, poorly fitted or top-dose-only effect; inactive = no such curve, though single readings can be large or run the other way;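 note: % of control where 0% means no effect; miR-21 action dims this reporter so a rising signal means less miR-21 action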
#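 Using DMEM plus 10% FBS, HeLa miR-21-FLuc cells are incubated with test compounds (final up to about 40uM) for 48 hours; firefly luciferase signal is then imaged following reagent-mediated lysis.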
# ERG Ets-DNA blk: inhibitors of human ERG Ets domain-DNA interaction. P11308. fluorescence polarization, His-ERG Ets domain / labelled DNA. Potency, µM (doses to about 76.9 µM), for the others: top-dose FP activity, negative = inhibition, usual class: inhibitors. actives 0.028% (n = 370,000); active = well fitted inhibition curve with a large enough effect in the polarisation, with a control signal flat; inconclusive = small, poorly fitted or top-dose-only effect, or effect the other way, or a change in a side signal; inactive = no such curve, though single readings can be large or run the other way; the % refers to the polarisation;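 note: polarization taken with two DNA probes labelled with fluorescein and Texas red; potency is the fitted concentration of half-maximal effect; % of control where 0% means no effect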
#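 His-tagged ERG Ets domain (1 uM in the protein solution; 300mM KCl, 50mM Tris-HCl, 1mM EDTA, 1mM DTT, pH 7.5) received compound, then a probe mix of 5 nM fluorescein-DNA and 100nM Texas-615-DNA. Fluorescence polarization was read for both dyes.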
# ALOX12 inh: ALOX12 (human) lipoxygenase inhibition | purified 12hLO, xylenol orange hydroperoxide absorbance | Potency, µM (doses to about 108 µM), for the others: top-dose activity change, negative = inhibition, most hits filed as inhibitors | actives 1.1% (n = 580,000); note: potency is the fitted concentration of half-maximal effect; % is set by controls: 0 for no effect and ±100 for the full control effect
#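 Purified human 12hLO (150 nM final) in 25 mM Hepes, 0.01% Triton X-100, pH 7.0 was preincubated 15 min at room temperature with compound. Then 40 uM arachidonic acid was added, 30 min. Hydroperoxide was read by Fe-XO absorbance ratio 573/405 nm.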
# PINK1 expr mod: modulators of PINK1 expression; PINK1 immunofluorescence, high-content cytometry, 24 h; Potency, µM (doses to about 76.6 µM), inactives show at the highest dose activation (PINK1 increase), hits mostly activators; actives 0.2% (n = 410,000); AID 624263; active = well fitted activation curve with a large enough effect; inconclusive = small, poorly fitted or top-dose-only effect; cell line not stated here; note: potency is the fitted concentration of half-maximal effect; % of control where 0% means no effect; nearly all actives have a fitted effect of over 65% in size
#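 Readout is PINK1 immunofluorescence, quantified alongside mitochondrial, cell and nuclear markers by laser-scanning microplate cytometry. Cells from a stable line were exposed to compound titrations (5 concentrations) for 24 hours, with CCCP controls.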
# PTHR1 agonist: PTHR1 (human) receptor agonism; Q03431; HEK293 GP2 PTHR1 cells, GloSensor cAMP luminescence, 1 h; Potency, µM (titrated, usually from 115 µM), inactives show at the top dose activation, actives largely listed as activators; actives 0.075% (n = 410,000); AID 743266; note: potency is the fitted concentration of half-maximal effect; nearly all actives have a fitted effect of over 55% in size
#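 HEK-293-derived GP2 cells expressing PTHR1 and a GloSensor cAMP reporter, 3,000/well, plated overnight, given luciferin plus IBMX (each 0.5 mM as added) for 1 h at 37 °C, then compound for 1 h at 37 °C. Luminescence was read after 15 min at room temperature.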
# * = called active by the depositor; i = inactive; u = inconclusive; x = not tested or not shown; ! = not active in a repeat; [ ] = dose if it differs, or a comment. Unless noted, calls come from the whole dose curve; as a rule, active = well fitted curve in the direction sought with a large enough effect; inconclusive = small, poorly fitted or top-dose-only effect, or another doubt; inactive = no such curve, though single readings can be large; an effect the other way counts as inactive or inconclusive.
SMILES,Giardia killer,miR-21 reporter,ERG Ets-DNA blk,ALOX12 inh,PINK1 expr mod,PTHR1 agonist
Cc1cc(SCC(=O)Nc2ccccc2C)nc(C)n1,-10,-4%,-8%,4%,3%,-7%[57.5 µM]
Cc1ccccc1NC(=O)CNc1nc(Nc2ccccc2)nc(Nc2ccccc2)n1,x,x,x,16µM*,x,x
CCN(C)c1ccnc(N2CC[C@@H]3C[C@H](N4CCOCC4)CC[C@@]3(COC)C2)n1,x,x,x,17%,x,x
N#C/C(=C\c1ccc(O)c(O)c1)C(=O)NCCCc1ccccc1,5,-17%,4%,28µM*!,0%,-30%
Cc1ccc(C(=O)CN2/C(=C(\O)c3ccccc3)C(=O)c3ccccc3S2(=O)=O)c(C)c1,-25,27%,2%,x,-1%,-10%
CCN1C(=O)C(=O)c2cc(C)ccc21,11,x,-6%,-5%,3%,-16%
CC[N+]1=C(C)C(C)(C)c2cc(C)ccc21,17,23%,114%,u,22µM*,-29%
CCCc1nc(SCC(=O)c2ccc(F)cc2)c2ccccc2n1,-4,2%,-2%,35µM*,1%,-37%
COc1cc(/C=C(\C#N)C(=O)C(C)(C)C)ccc1OCc1ccccc1Cl,x,x,x,-1%,x,x
N#C/C(=C(/O)c1ccc([N+](=O)[O-])o1)c1nc2ccccc2[nH]1,-92*,0%,9%,-11%,2%,-20%
N#C/C(=C\c1ccc([N+](=O)[O-])o1)c1nc2ccccc2[nH]1,-28,u,58%,-9%,2%,-36%
COc1ccc2[nH]c3c(=O)n(CCCCC(=O)NCCN4CCCC4)c(=S)[nH]c3c2c1,-18,2%,-1%,14µM*,u,22%[57.5 µM]
COc1ccc(CCN(C)CCC(=O)Nc2c(C)cc(C)cc2C)cc1OC,7,3%,-4%,0%,6%,i
Cc1oc2c(c1C(=O)NCc1cccnc1)C(=O)c1ccccc1C2=O,-86*,u,-10%,x,3%,-14%
COc1ccc(CNC(=O)c2c(C)oc3c2C(=O)c2ccccc2C3=O)cc1,u,-5%,-8%,u,-1%,-22%
Cc1ccc(C)c(NC(=O)CSc2ncc3c(n2)-c2cc(Cl)ccc2N(Cc2ccccc2F)S3(=O)=O)c1,x,-3%,-9%,-15%,1%,i
COc1ccc(NC(=O)C(C)n2nnc3sc(-c4ccccc4)cc3c2=O)cc1Cl (stereo not given),x,-13%,7%,u,4%,i
CC(C(=O)Nc1ccc(F)cc1)n1nnc2sc(-c3ccccc3)cc2c1=O (stereo not given),x,x,x,32µM*,x,x
Nc1cc(S(=O)(=O)Nc2ccc(Cl)cc2)ccc1N1CCOCC1,-20,19%,-4%,45µM*,-1%,-31%
O=C(CSCc1ccccc1)Nc1ccc(F)cc1F,2,-45%,-1%,5%,0%,-3%
C=CCN1C(c2ccc(Br)cc2)=CS/C1=C(\C#N)c1nnc(N2CCOCC2)n1-c1ccccc1,9,x,9%,40µM*,-2%,-25%
C=CCN1C(c2cccc(C(F)(F)F)c2)=CS/C1=C(\C#N)c1nnc(N2CCOCC2)n1-c1ccccc1,x,x,x,-6%,1%,i
O=C(COc1ccccc1[N+](=O)[O-])OCC(=O)c1ccc(Br)s1,13,x,9%,45µM*,0%,i
COc1cccc2cc(-c3nnc(Nc4ccccc4C)s3)c(=O)oc12,x,-70%,1%,8%,0%,-4%
O=C(O)c1ccccc1-c1cc2ccccc2oc1=O,x,x,x,17%,x,x

# Profiles as entered above:
# N#C/C(=C(/O)c1ccc([N+](=O)[O-])o1)c1nc2ccccc2[nH]1 is listed as Giardia killer = -92*; miR-21 reporter = 0%; ERG Ets-DNA blk = 9%; ALOX12 inh = -11%; PINK1 expr mod = 2%; PTHR1 agonist = -20%
# COc1ccc(CNC(=O)c2c(C)oc3c2C(=O)c2ccccc2C3=O)cc1 is listed as Giardia killer = u; miR-21 reporter = -5%; ERG Ets-DNA blk = -8%; ALOX12 inh = u; PINK1 expr mod = -1%; PTHR1 agonist = -22%

# The listing picks up; the 3 compounds before the break are reprinted first.
SMILES,Giardia killer,miR-21 reporter,ERG Ets-DNA blk,ALOX12 inh,PINK1 expr mod,PTHR1 agonist
O=C(COc1ccccc1[N+](=O)[O-])OCC(=O)c1ccc(Br)s1,13,x,9%,45µM*,0%,i
COc1cccc2cc(-c3nnc(Nc4ccccc4C)s3)c(=O)oc12,x,-70%,1%,8%,0%,-4%
O=C(O)c1ccccc1-c1cc2ccccc2oc1=O,x,x,x,17%,x,x
O=C(O)c1c(Cl)c(Cl)c(Cl)c(Cl)c1-c1c2cc(I)c(=O)c(I)c-2oc2c(I)c(O)c(I)cc12,x,x,x,0.86µM*,x,x
O=C(O)c1ccccc1-c1c2cc(I)c(=O)c(I)c-2oc2c(I)c(O)c(I)cc12,-5,x,-5%,35µM*!,1%,-14%
CC(C)CCn1c(COc2ccccc2)n[nH]c1=S,1,0%,14%,16µM*!,-1%,-17%
CCc1ccc(OCc2n[nH]c(=S)n2C(C)CCCC(C)C)cc1 (stereo not given),3,9%,-5%,35µM*,5%,-23%
CCOC(=O)n1c(=O)n(C)c2ccc(Cl)cc21,1,-10%,7%,2%,-2%,i
O=C(CSc1nnc(-c2cccnc2)o1)c1cc2ccccc2oc1=O,-10,-10%,0%,0%,-3%,i
O=C(CSc1ccc(Cl)cc1)c1cc2ccccc2oc1=O,x,x,x,7.1µM*,x,x
Cn1cnnc1SCC(=O)c1cc2ccccc2oc1=O,-6,-8%,x,6.3µM*,x,-19%[57.5 µM]
COC(=O)C(NC(C)=O)(Nc1nc2ccc(C)cc2s1)C(F)(F)F (stereo not given),8,-1%,5%,1%,-1%,-9%[57.5 µM]
Oc1cccc2c(N=Cc3ccc(F)c(F)c3)cccc12,x,x,x,22µM*,x,x
C=C/C(C)=C/[C@@]1(C)SC(=O)C(C)=C1O,x,x,x,4%,x,x
Cc1ccc(OCC(=O)N/N=C\c2ccc(C)o2)c([N+](=O)[O-])c1,8,-3%,2%,-7%,45µM*,-14%
O=C(N/N=C/c1ccc([N+](=O)[O-])o1)c1sc2ccccc2c1Cl,-95*,5%,16%,-24%,13%,-94%
O=C(COc1ccccc1)N/N=C/c1ccc([N+](=O)[O-])o1,-97*,u,24%,u,u,i
Cc1ccc(OCC(=O)N/N=C/c2ccccc2)c([N+](=O)[O-])c1,21,-3%,5%,-7%,2%,i
Cc1ccc(OCC(=O)N/N=C/c2ccc([N+](=O)[O-])o2)cc1,-101*,4%,-2%,2%,u,i
Cc1ccc(OCC(=O)N/N=C/c2ccco2)cc1,-12,-4%,x,7%,-4%[38.3 µM],-9%[57.5 µM]
COc1ccc(/C=N/NC(=O)CNC(=O)C2COc3ccccc3O2)cc1OC (stereo not given),-9,-4%,10%,-1%,-1%,-1%
O=C(N/N=C/c1ccc([N+](=O)[O-])o1)C(O)c1ccccc1 (stereo not given),-84*,u,-7%,0%,45µM*,i
COc1ccc(-c2nn(-c3ccccc3)cc2C(=O)N/N=C/c2ccc([N+](=O)[O-])o2)cc1,-86*,1%,-6%,7%,-2%,-22%
Cc1cc(C(=O)N/N=C/c2ccc([N+](=O)[O-])o2)c(C)o1,-97*,u,2%,u,9%,-4%
CCCC(=O)Nc1ccc(C(=O)N/N=C/c2ccc([N+](=O)[O-])o2)cc1,3,u,0%,-14%,u,i
O=C(N/N=C/c1ccc([N+](=O)[O-])o1)c1cn2ccc3ccccc3c2n1,-95*,1%,35%,6%,13%,11%

# Screens (PubChem)
